Key:
Format in all cases: in vivo, C57/BL6 mice
[1] = system: hair cells of the cochlea, kanamycin ototoxic animal model; assay: Biopsy of cochlea and ampulla (hair cells, H&E) in the kanamycin ototoxic animal model; details: kanamycin 800 mg/kg S.C. + PEP1 10 mg/kg I.P. twice daily for 14 days
Description: (§1) For an experiment, C57/BL6 mice (4-week-old to 6-week-old, body weight of 15 g to 25 g, male) were prepared. As an ototoxic drug, kanamycin in the form of kanamycin sulfate was dissolved in saline solution at a concentration of 40 mg/ml was prepared as a preparation for 800 mg/kg injection administration, and the peptide synthesized according to Example 1, i.e., PEP1, was prepared as a preparation for injection administration by dissolving 100 mg of PEP1 in 10 ml PBS.
Kanamycin, which is an ototoxic drug, and the peptide according to the present invention, i.e., PEP1, were administered to the prepared experimental animals after dividing the animals into experimental groups.
Experimental Group 1: kanamycin 800 mg/kg S.C (subcutaneous injection)+saline 0.1 ml/10 g mice I.P. (intraperitoneal injection)
Experimental Group 2: kanamycin 800 mg/kg S.C.+PEP1 10 mg/kg I.P.
A dose for each experimental group was injected twice daily for 14 days.
Three weeks after the experiment started, the mice were euthanized, and then blood samples were collected therefrom, the mice were subjected to perfusion fixation with 4% paraformaldehyde (pH 7.4) diluted with 0.1 M phosphate buffered saline, and an organ (the temporal bone) was extracted from each mouse.
To observe an overall structure of the cochlea and the vestibule, the mice were fixed in 4% paraformaldehyde (pH 7.4) at 4° C. for 24 hours, and then maintained in 0.135M EDTA for three days to allow decalcification to occur. Tissue blocks were made using an optical cutting temperature compound (OCT compound) as an embedding agent for freezing and then stored at −80° C. and made in slide forms, followed by H&E staining.
To quantitatively analyze the temporal bone on the left side, a whole mount of the cochlea was prepared. The cochlear bony labyrinth was cautiously separated from the cochlear membranous labyrinth using a micro-instrument and a microscope and the apical turn and the basal turn were separated. […]

[2] = system: hearing threshold, kanamycin ototoxic animal model; assay: Auditory brainstem response (ABR) test in the kanamycin ototoxic animal model; details: kanamycin 800 mg/kg S.C. + PEP1 10 mg/kg I.P. twice daily for 14 days; 4, 8, 16, 32 kHz; up to 3 weeks; p<0.001 versus kanamycin + saline; FIG. 6
Description: (§2) The auditory brainstem response (ABR) test used in experiments of the present invention to identify hearing loss is an accurate hearing test in which brainwaves from the nerve center of the brain are averaged, which can be obtained by auditory stimulation, and a threshold value of hearing is determined. As the threshold value increases, this indicates hearing loss is more severe.
as §1, with “PBS. […]” for “PBS.”
An ABR test was performed before injection, 1 week after injection, 2 weeks after injection, and 3 weeks after injection. Hearing was evaluated using negative stimuli of 4 kHz, 8 kHz, 16 kHz, and 32 kHz and, in ABR, the smallest stimulus intensity showing waveform #5 was determined as a threshold. Prior to drug administration, baseline hearing was measured in all the groups, and measurement was performed after anesthetizing each group via intraperitoneal injection of isoflorane. […]

[3] = system: hearing threshold, ototoxic animal model administered kanamycin and furosemide; assay: ABR test in the kanamycin and furosemide ototoxic animal model (Experiments D1 and D3)
Description: as §2
(§3) For an experiment, an ototoxic animal model was prepared by intraperitoneally administering 1000 mg/kg of kanamycin to C57/BL6 mice (5-week-old, body weight of 15 g to 25 g, female) and injecting 100 mg/kg of furosemide thereinto within 30 minutes.
(§4) 24 ototoxic animal models were classified into experimental groups and a control as follows and an experiment was carried out. The experimental name was indicated as D1 (See FIG. 10).
(§5) Experimental Group 1: 8 ototoxic animal models administered 10 mg/kg of PEP1 via subcutaneous injection on day 1, day 2, and day 3, respectively, after administration of kanamycin and furosemide
Experimental Group 2: 8 ototoxic animal models administered 15 mg/kg of dexamethasone via subcutaneous administration on day 1, day 2, and day 3, respectively after administration of kanamycin and furosemide […]
An ABR test was performed prior to administration of kanamycin and furosemide (day 0), on day 7 after the administration, and on day 14 after the administration (The test was performed in the same manner for both Experiments D1 and D3). Hearing was evaluated using negative stimuli of 8 kHz, 16 kHz, and 32 kHz, and, in ABR, the smallest stimulus intensity showing waveform #5 was determined as a threshold. Prior to drug administration, baseline hearing was measured in all the groups, and measurement was performed after anesthetizing each group via intraperitoneal injection of isoflorane.
Hearing threshold values measured in the ABR test and values of hair cells of each group measured in biopsy were statistically processed and significance thereof was confirmed. […]

[4] = system: hair cells at basal, mid, and apex of the cochlea, ototoxic animal model administered kanamycin and furosemide; assay: Biopsy of hair cell viability in the kanamycin and furosemide ototoxic animal model (Experiments D1 and D3); details: for viability of hair cells at basal, mid, and apex of the cochlea (confocal observation): PEP1 10 mg/kg or dexamethasone 15 mg/kg S.C.
Description: as §3, §4, §5
Experimental Group 2: 8 ototoxic animal models administered 15 mg/kg of dexamethasone via subcutaneous administration on day 1, day 2, and day 3, respectively after administration of kanamycin and furosemide
Control 1: 8 ototoxic animal models administered saline solution on day 1, day 2, and day 3, respectively after administration of kanamycin and furosemide
In addition, to evaluate experimental results (i.e., a difference in effects according to administration time of an experimental substance) after administering an ototoxic drug to ototoxic animal models and taking more time for the ototoxicity to progress, 24 ototoxic animal models were classified into experimental groups and a control and an experiment was carried out. The experimental name was indicated as D3 (see FIG. 10).
Experimental Group 3: 8 ototoxic animal models administered 10 mg/kg of PEP1 via subcutaneous injection on day 3, day 4, and day 5, respectively after administration of kanamycin and furosemide
Experimental Group 4: 8 ototoxic animal models administered 15 mg/kg of dexamethasone via subcutaneous administration on day 3, day 4, and day 5, respectively after administration of kanamycin and furosemide
Control 2: 8 ototoxic animal models administered saline solution on day 3, day 4, and day 5, respectively after administration of kanamycin and furosemide
On day 14 after administration of kanamycin and furosemide, mice on which the ABR test was completed were euthanized, and then otic capsules were extracted therefrom and a degree of damage to hair cells was observed using a confocal scanning microscope.
Hearing threshold values measured in the ABR test and values of hair cells of each group measured in biopsy were statistically processed and significance thereof was confirmed. In this case, an ANOVA test was used.

CC[C@H](C)[C@H](NC(=O)[C@H](Cc1ccccc1)NC(=O)[C@H](CCCNC(=N)N)NC(=O)[C@H](CC(C)C)NC(=O)[C@H](CCCNC(=N)N)NC(=O)[C@H](CO)NC(=O)[C@@H](NC(=O)[C@H](CC(C)C)NC(=O)[C@H](CC(C)C)NC(=O)[C@H](C)NC(=O)[C@@H]1CCCN1C(=O)[C@H](CCCNC(=N)N)NC(=O)[C@H](C)NC(=O)[C@@H](N)CCC(=O)O)[C@@H](C)O)C(=O)N1CCC[C@H]1C(=O)N[C@@H](CCCCN)C(=O)O [PEP1]
H&E staining of frozen cochlear and ampullar tissue sections ([1]; FIG. 5): normal cochlear hair cells and normal ampullar sensory epithelium were conserved | observation of hair cells at the basal turn, the middle turn, and the apical turn of the cochlea ([1]; biopsy after three weeks, FIG. 2): no damage to hair cells was observed in all the sites | number of hair cells at the middle turn and the basal turn of the cochlea, versus the kanamycin + saline group ([1]; p<0.001, FIG. 3): greater number of hair cells | change in ABR hearing threshold value over time after drug administration [2]: a change in the threshold value was insignificant over time | ABR hearing threshold value on day 14, versus the saline solution control ([3]; Experiment D1: 10 mg/kg S.C. on days 1, 2, 3 after kanamycin and furosemide, significant at 32 kHz (p=0.008), FIG. 11): smaller hearing threshold value | ABR hearing threshold value on day 14, versus the saline solution control and the dexamethasone group ([3]; Experiment D3: 10 mg/kg S.C. on days 3, 4, 5 after kanamycin and furosemide, significant at 8 kHz and 16 kHz (p=0.014), FIG. 12): smaller hearing threshold value | ABR hearing threshold values according to administration time of PEP1, Experiment D1 versus D3 ([3]; day 0, day 7 and day 14, 10 mg/kg S.C., FIG. 13): no significant difference in hearing threshold values | viability of hair cells at basal, mid, and apex of the cochlea (confocal observation) ([4]; Experiment D1: dosing on days 1, 2, 3, biopsy on day 14, FIG. 14): normal hair cells were observed | percentage of normal hair cells at basal, mid, and apex of the cochlea, versus the saline solution control ([4]; Experiment D1, 10 mg/kg S.C. on days 1, 2, 3, significant at mid and basal (p=0.006), FIG. 16): higher than that of saline solution-administered Control 1 | percentage of normal hair cells, versus the dexamethasone group ([4]; Experiment D1, PEP1 10 mg/kg versus dexamethasone 15 mg/kg S.C. on days 1, 2, 3, FIG. 16): higher than that of dexamethasone-administered Experimental Group 2 | viability of hair cells at basal, mid, and apex of the cochlea (confocal observation) ([4]; Experiment D3: dosing on days 3, 4, 5, biopsy on day 14, FIG. 15): normal hair cells were observed | percentage of normal hair cells at basal, mid, and apex of the cochlea, versus the saline solution control ([4]; Experiment D3, 10 mg/kg S.C. on days 3, 4, 5, significant at mid and basal (p=0.011), FIG. 17): higher than that of saline solution-administered Control 2 | percentage of normal hair cells, versus the dexamethasone group ([4]; Experiment D3, PEP1 10 mg/kg versus dexamethasone 15 mg/kg S.C. on days 3, 4, 5, FIG. 17): higher than that of dexamethasone-administered Experimental Group 4 | percentage of normal hair cells according to administration time of PEP1, Experiment D1 versus D3 ([4]; biopsy on day 14, 10 mg/kg S.C., FIG. 18): did not show a significant difference

From patent US10835582B2, “Peptide for preventing hearing loss, and composition comprising same” (GemVax & KAEL CO., LTD., priority 2015, dated 2020)
